Measurements reported in patent US10730889B2, “Amido spirocyclic amide and sulfonamide derivatives” (Forma TM, LLC, priority 2012, dated 2020).

The chains behind the UniProt entries cited, without tags or fusion partners. Where a name states a change or a piece, a line headed by the entry shows the natural chain unless it says otherwise.
UniProt P43490: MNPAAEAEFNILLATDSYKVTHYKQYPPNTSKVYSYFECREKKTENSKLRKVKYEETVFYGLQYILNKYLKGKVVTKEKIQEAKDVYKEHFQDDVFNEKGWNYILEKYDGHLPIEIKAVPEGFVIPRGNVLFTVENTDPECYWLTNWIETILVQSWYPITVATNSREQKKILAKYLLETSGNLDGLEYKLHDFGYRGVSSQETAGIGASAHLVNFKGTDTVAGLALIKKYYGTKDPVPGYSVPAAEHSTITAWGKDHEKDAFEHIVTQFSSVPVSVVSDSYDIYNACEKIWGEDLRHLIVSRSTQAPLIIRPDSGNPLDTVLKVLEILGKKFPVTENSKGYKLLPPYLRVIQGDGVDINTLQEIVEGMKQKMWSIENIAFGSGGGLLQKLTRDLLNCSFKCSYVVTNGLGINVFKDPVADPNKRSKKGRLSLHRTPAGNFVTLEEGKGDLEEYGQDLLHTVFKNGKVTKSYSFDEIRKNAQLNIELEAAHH

Target: NAMPT (Homo sapiens (Human), UniProt P43490)
Experiment: Biochemical inhibition assay (NAMPT enzymatic reaction, NMN quantified by mass spectrometry)

| SMILES | IC50 [nM] |
| --- | --- |
| CC(C)(CO)OC(=O)N1CCC2(CC1)CC2CNC(=O)N1Cc2ccncc2C1 (centres unmarked) | 28.8 |
| CC(=O)NCC(C)(C)OC(=O)N1CCC2(CC1)CC2CNC(=O)N1Cc2ccncc2C1 (centres unmarked) | 20.2 |
| CC(C)(O)COC(=O)N1CCC2(CC1)CC2CNC(=O)N1Cc2ccncc2C1 (centres unmarked) | 67.5 |
| Cc1nn(C)c(C)c1C(=O)N1CCC2(CC1)CC2CNC(=O)c1cc2ccncc2o1 (single isomer, unassigned) [Example 300, N-[[6-(1,3,5-trimethylpyrazole-4-carbonyl)-6-azaspiro[2.5]octan-2-yl]methyl]furo[2,3-c]pyridine-2-carboxamide] | 1130 |
| Cc1nn(C)c(C)c1C(=O)N1CCC2(CC1)CC2CNC(=O)c1cc2ccncc2o1 (single isomer, unassigned) [Example 301, N-[[6-(1,3,5-trimethylpyrazole-4-carbonyl)-6-azaspiro[2.5]octan-2-yl]methyl]furo[2,3-c]pyridine-2-carboxamide] | 42.5 |
| Cc1nc(C)c(C(=O)N2CCC3(CC2)CC3CNC(=O)c2cc3ccncc3o2)o1 (single isomer, unassigned) [Example 384, N-[[6-(2,4-dimethyloxazole-5-carbonyl)-6-azaspiro[2.5]octan-2-yl]methyl]furo[2,3-c]pyridine-2-carboxamide (single isomer)] | 928 |
| O=C(NCC1CC12CCN(C(=O)C1CCOCC1)CC2)c1cc2cnccc2[nH]1 (centres unmarked) [Example 10, N-[[8-(tetrahydropyran-4-carbonyl)-8-azaspiro[2.5]octan-2-yl]methyl]-1H-pyrrolo[3,2-c]pyridine-2-carboxamidc] | 208 |
| CC(C)(C)OC(=O)N1CCC2(CC1)CC(CNC(=O)c1ccc3nccn3c1)C2 [Example 21, tert-butyl 2-((imidazo[1,2-a]pyridine-6-carboxamido)methyl]-7-azaspiro[3.5]nonane-7-carboxylate] | 175 |
| O=C(NCC1CC12CCN(C(=O)Cn1ccnc1)CC2)c1cc2ccncc2o1 (centres unmarked) [Example 26, N-[[6-(2-imidazol-1-ylacetyl)-6-azaspiro[2.5]octan-2-yl]methyl]furo[2,3-c]pyridine-2-carboxamide] | 304 |
| O=C(NCC1CC12CCN(C(=O)CCC(F)(F)F)CC2)c1cc2ccncc2o1 (centres unmarked) [Example 27, N-[[6-(4,4,4-trifluorobutanoyl)-6-azaspiro[2.5]octan-2-yl]methyl]furo[2,3-c]pyridine-2-carboxamide] | 50.4 |
| CS(=O)(=O)c1cccc(CC(=O)N2CCC3(CC2)CC3CNC(=O)c2cc3ccncc3o2)c1 (centres unmarked) [Example 28, N-[[6-[2-(3-methylsulfonylphenyl)acetyl]-6-azaspiro[2.5]octan-2-yl]methyl]furo[2,3-c]pyridine-2-carboxamide] | 64.2 |
| CC(C)(C)CC(=O)N1CCC2(CC1)CC2CNC(=O)c1cc2ccncc2o1 (centres unmarked) [Example 29, N-[[6-(3,3-dimethylbutanoyl)-6-azaspiro[2.5]octan-2-yl]methyl]furo[2,3-c]pyridine-2-carboxamide] | 11.1 |
| N#Cc1cccc(CC(=O)N2CCC3(CC2)CC3CNC(=O)c2cc3ccncc3o2)c1 (centres unmarked) [Example 31, N-[[6-[2-(3-cyanophenyl)acetyl]-6-azaspiro[2.5]octan-2-yl]methyl]furo[2,3-c]pyridine-2-carboxamide] | 37.3 |
| O=C(NCC1CC12CCN(C(=O)CN1CCCC1)CC2)c1cc2ccncc2o1 (centres unmarked) [Example 33, N-[[6-(2-pyrrolidin-1-ylacetyl)-6-azaspiro[2.5]octan-2-yl]methyl]furo[2,3-c]pyridine-2-carboxamide] | 1120 |
| Cc1cc(CC(=O)N2CCC3(CC2)CC3CNC(=O)c2cc3ccncc3o2)on1 (centres unmarked) [Example 34, N-[[6-[2-(3-methylisoxazol-5-yl)acetyl]-6-azaspiro[2.5]octan-2-yl]methyl]furo[2,3-c]pyridine-2-carboxamide] | 54.2 |
| O=C(NCC1CC12CCN(C(=O)CN1CCCCC1)CC2)c1cc2ccncc2o1 (centres unmarked) [Example 35, N-[[6-[2-(1-piperidyl)acetyl]-6-azaspiro[2.5]octan-2-yl]methyl]furo[2,3-c]pyridine-2-carboxamide] | 563 |
| O=C(NCC1CC12CCN(C(=O)CC1CCOCC1)CC2)c1cc2ccncc2o1 (centres unmarked) [Example 36, N-[[6-(2-tetrahydropyran-4-ylacetyl)-6-azaspiro[2.5]octan-2-yl]methyl]furo[2,3-c]pyridine-2-carboxamide] | 89.3 |
| O=C(NCC1CC12CCN(C(=O)CC1CCCO1)CC2)c1cc2ccncc2o1 (centres unmarked) [Example 37, N-[[6-(2-tetrahydrofuran-2-ylacetyl)-6-azasptro[2.5]octan-2-yl]methyl]furo[2,3-c]pyridine-2-carboxamide] | 155 |
| CC(C)(C)OCC(=O)N1CCC2(CC1)CC2CNC(=O)c1cc2ccncc2o1 (centres unmarked) [Example 38, N-[[6-(2-tert-butoxyacetyl)-6-azaspiro[2.5]octan-2-yl]methyl]furo[2,3-c]pyridine-2-carboxamide] | 40 |

| SMILES | IC50 [nM] |
| --- | --- |
| O=C(NCC1CC12CCN(C(=O)Cc1cccnc1)CC2)c1cc2ccncc2o1 (centres unmarked) [Example 39, N-[[6-[2-(3-pyridyl)acetyl]-6-azaspiro[2.5]octan-2-yl]methyl]furo[2,3-c]pyndine-2-carboxamide] | 47 |
| O=C(NCC1CC12CCN(C(=O)CC1CCN(CC(F)(F)F)CC1)CC2)c1cc2cnccc2[nH]1 (centres unmarked) [Example 40, N-[[6-[2-[1-(2,2,2-trifluoroethyl)-4-piperidyl]acetyl]-6-azaspiro[2.5]octan-2-yl]methyl]-1H-pyrrolo[3,2-c]pyridine-2-carboxamide] | 130 |
| CC(C)CC(=O)N1CCC2(CC1)CC2CNC(=O)c1cc2cnccc2[nH]1 (centres unmarked) [Example 46, N-[[6-(3-methylbutanoyl)-6-azaspiro[2.5]octan-2-yl]methyl]-1H-pyrrolo[3,2-c]pyridine-2-carboxamide] | 120 |
| O=C(Cc1ccccc1)N1CCC2(CC1)CC2CNC(=O)N1Cc2ccncc2C1 (centres unmarked) [Example 47, N-[[6-(2-phenylacetyl)-6-azaspiro[2.5]octan-2-yl]methyl]-1,3-dihydropyrrolo[3,4-c]pyridine-2-carboxamide] | 4.59 |
| O=C(NCC1CC12CCN(C(=O)Cc1cnccn1)CC2)c1cc2ccncc2o1 (centres unmarked) [Example 50, N-[[6-(2-pyrazin-2-ylacetyl)-6-azasptro[2.5]octan-2-yl]methyl]furo[2,3-c]pyridine-2-carboxamide] | 309 |
| O=C(NCC1CC12CCN(C(=O)CN1CCOCC1)CC2)c1cc2ccncc2o1 (centres unmarked) [Example 51, N-[[6-(2-morpholinoacetyl)-6-azaspiro[2.5]octan-2-yl]methyl]furo[2,3-c]pyridine-2-carboxamide] | 173 |
| O=C(NCC1CC12CCN(C(=O)CC1CCCCO1)CC2)c1cc2ccncc2o1 (centres unmarked) [Example 52, N-[[6-(2-tetrahydropyran-2-ylacetyl)-6-azaspiro[2.5]octan-2-yl]methyl]furo[2,3-c]pyridine-2-carboxamide] | 135 |
| CC(C(=O)N1CCC2(CC1)CC2CNC(=O)c1cc2ccncc2o1)N1CCCC1 (centres unmarked) [Example 53, N-[[6-(2-pyrrolidin-1-ylpropanoyl)-6-azaspiro[2.5]octan-2-yl]methyl]furo[2,3-c]pyridine-2-carboxamide] | 420 |
| CN(C)C(=O)CCC(=O)N1CCC2(CC1)CC2CNC(=O)c1cc2ccncc2o1 (centres unmarked) [Example 55, N-[[6-[4-(dimethylamino)-4-oxo-butanoyl]-6-azaspiro[2.5]octan-2-yl]methyl]furo[2,3-c]pyridine-2-carboxamide] | 1060 |
| CN1CC(C(=O)N2CCC3(CC2)CC3CNC(=O)c2cc3ccncc3o2)CC1=O (centres unmarked) [Example 56, N-[[6-(1-methyl-5-oxo-pyrrolidine-3-carbonyl)-6-azaspiro[2.5]octan-2-yl]methyl]furo[2,3-c]pyridine-2-carboxamide] | 575 |
| O=C(NCC1CC12CCN(C(=O)CN1CCCC1=O)CC2)c1cc2ccncc2o1 (centres unmarked) [Example 57, N-[[6-[2-(2-oxopyrrolidin-1-yl)acetyl]-6-azaspiro[2.5]octan-2-yl)methyl]furo[2,3-c]pyridine-2-carboxamide] | 223 |
| O=C(NCC1CC12CCN(C(=O)C1CC1(F)F)CC2)c1cc2ccncc2o1 (centres unmarked) [Example 58, N-[[6-(2,2-difluorocyclopropanecarbonyl)-6-azaspiro[2.5]octan-2-yl]methyl]furo(2,3-c]pyridine-2-carboxamide] | 422 |
| O=C(NCC1CC12CCN(C(=O)C1CCOC1)CC2)c1cc2ccncc2o1 (centres unmarked) [Example 59, N-[[6-(tetrahydrofuran-3-carbonyl)-6-azaspiro[2.5]octan-2-yl]methyl]furo[2,3-c]pyridine-2-carboxamide] | 782 |
| O=C(NCC1CC12CCN(C(=O)C1CCOCC1)CC2)c1cc2ccncc2o1 (centres unmarked) [Example 60, N-[[6-(tetrahydropyran-4-carbonyl)-6-azaspiro[2.5]octan-2-yl]methyl]furo[2,3-c]pyridine-2-carboxamide] | 309 |
| O=CNCC(=O)N1CCC2(CC1)CC2CNC(=O)c1cc2ccncc2o1 (centres unmarked) [Example 62, N-[[6-(2-formamidoacetyl)-6-azaspiro[2.5]octan-2-yl]methyl]furo[2,3-c]pyridine-2-carboxamide] | 395 |
| Cc1cc(C)n(CCC(=O)N2CCC3(CC2)CC3CNC(=O)c2cc3ccncc3o2)n1 (centres unmarked) [Example 63, N-[[6-[3-(3,5-dimethylpyrazol-1-yl)propanoyl]-6-azaspiro[2.5]octan-2-yl]methyl]furo[2,3-c]pyridine-2-carboxamide] | 177 |
| NC(=O)N1CCCC1C(=O)N1CCC2(CC1)CC2CNC(=O)c1cc2ccncc2o1 (centres unmarked) [Example 64, N-[[6-(1-carbamoylpyrrolidine-2-carbonyl)-6-azaspiro[2.5]octan-2-yl]methyl]furo[2,3-c]pyridine-2-carboxamide] | 398 |
| O=C(NCC1CC12CCN(C(=O)CCN1CCOCC1)CC2)c1cc2ccncc2o1 (centres unmarked) [Example 65, N-[[6-(3-morpholinopropanoyl)-6-azaspiro[2.5]octan-2-yl]methyl]furo[2,3-c]pyridine-2-carboxamide] | 526 |
| O=C(NCC1CC12CCN(C(=O)C1CCS(=O)(=O)C1)CC2)c1cc2ccncc2o1 (centres unmarked) [Example 66, N-[[6-(1,1-dioxothiolane-3-carbonyl)-6-azaspiro[2.5]octan-2-yl]methyl]furo[2,3-c]pyridine-2-carboxamide] | 1040 |
